Where a name gives a salt, the structure may show the parent alone.
Columns and labels:
[1] = system: xenograft-derived ALL-cells (ALL-SCID6, ALL-SCID3, ALL-SCID7); experiment: Apoptosis induction in xenograft-derived ALL-cells with high opioid-receptor expression; type: cell-based, human; conditions: 3 μg/mL D,L-methadone (therapeutic plasma concentration); cells expressing high amounts of opioid-receptors; 24 h and 48 h
[2] = system: BCP-ALL-cell line Tanoue; type: cell-based, human; conditions: 96 h; 3 μg/mL D,L-methadone + 0.06 μg/mL doxorubicin; 60 μg/mL naloxone, 200 μM IBMX or PTX

Row | Structure (SMILES) | cell death induction [1] | effect on apoptosis rates of combination treatment with D,L-methadone and doxorubicin [2]
1 | CCC(=O)C(CC(C)N(C)C)(c1ccccc1)c1ccccc1 (racemic) [D,L-methadone, D,L-methadone hydrochloride] | strong cell death | –
2 | C=CCN1CC[C@]23c4c5ccc(O)c4O[C@H]2C(=O)CC[C@@]3(O)[C@H]1C5 [naloxone] | – | strongly reduced the apoptosis rates
